According to patent US6800101B2, “Deactivatable biocides for hydrocarbonaceous products” (priority 2001, dated 2004):

Tested on: bacteria
Experiment: Neutralization of biocides with H2O2 and NH4Cl
Format: cell-based
Details: five times molar excess

| Substance | neutralizing biocides (glutaraldehyde) |
| --- | --- |
| H2O2 | not effective |
| NH4Cl | not effective |
